Compound activity deposited in PubChem BioAssay by National Center for Advancing Translational Sciences (NCATS).
DT40 TDP1 no CPT = qHTS for Inhibitors of human tyrosyl-DNA phosphodiesterase 1 (TDP1): qHTS in cells in absence of CPT; DT40 Tdp1-/- hTDP1 cells, no CPT, ATP luminescence, 48 h; 420,000 tested, 15% active; Potency, µM (top dose mostly 46.2 µM), for the others: at the highest dose activity change, negative = growth inhibition, actives largely listed as inhibitors; note: potency is the fitted concentration of half-maximal effect; % is set by controls: 0 for no effect and ±100 for the full control effect; nearly all actives have a fitted effect of over 55% in size
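Growth kinetics read by CellTiter-Glo luminescence after ≥48 hr at 37 °C. Cells: DT40 Tdp1-/- stably carrying human TDP1, 400 per well, compound exposure in the absence of CPT (DMSO vehicle).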
miR-21 reporter = raises the signal of a miR-21 reporter | HeLa miR-21 FLuc reporter, luciferase, 48 h | Potency, µM (doses to about 38.3 µM), for the others: at the highest dose reporter change, positive = more light | 340,000 tested, under 10 active | AID 2288; active = well fitted rising curve with a large enough effect; inconclusive = small, poorly fitted or top-dose-only effect; inactive = no such curve, though single readings can be large or run the other way;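 also: % of control where 0% means no effect; miR-21 action dims this reporter so a rising signal means less miR-21 action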
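Luminescence from a firefly luciferase reporter carrying a miR-21 binding site downstream, stably expressed under a CMV promoter in HeLa cells that make miR-21 endogenously, reports miRNA modulation after 48 h compound exposure up to approximately 40uM final.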
uPA generation = cell surface uPA generation inhibition. Potency, µM (top dose mostly 38.3 µM), without a hit: top-dose activity change, negative = inhibition, usual class: inhibitors. 330,000 tested, 0.31% active. cell surface uPA generation assay, qHTS; active = well fitted inhibition curve with a large enough effect; inconclusive = small, poorly fitted or top-dose-only effect; inactive = no such curve, though single readings can be large or run the other way; tested in mouse RAW 264.7 cells; note: potency is the fitted concentration of half-maximal effect; % is set by controls: 0 for no effect and ±100 for the full control effect; nearly all actives have a fitted effect of over 55% in size
TDP1 cell CPT = DT40-hTDP1 cell growth loss with CPT. chicken DT40 Tdp1-/-;hTDP1 cells + 20 nM CPT, ATP luminescence, 48 h. 420,000 tested, 12% active. Potency, µM (titrated, usually from 46.2 µM), without a hit: at the highest dose activity change, negative = growth inhibition, hits mostly inhibitors. AID 686979; note: potency is the fitted concentration of half-maximal effect; % is set by controls: 0 for no effect and ±100 for the full control effect; nearly all actives have a fitted effect of over 55% in size
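Cell growth measured by CellTiter-Glo luminescence after a minimum 48 h, 37 C compound exposure with 20 nM CPT in Tdp1-knockout DT40 cells stably expressing hTDP1, seeded 400/well; qHTS titration format.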
TDP1 block = inhibitors of human tyrosyl-DNA phosphodiesterase TDP1; Q9NUW8; recombinant TDP1, AlphaScreen DNA substrate cleavage; Potency, µM (series often up to 130 µM), inactives show at the top dose activity change, negative = inhibition, hits mostly inhibitors; 350,000 tested, 0.28% active; note: potency is the fitted concentration of half-maximal effect; % is set by controls: 0 for no effect and ±100 for the full control effect; nearly all actives have a fitted effect of over 40% in size
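Enzyme-compound mixtures sat 15 min at room temperature, followed by a 5 min reaction with 15 nM final substrate and 10 min with AlphaScreen beads. Recombinant human Tdp1 was used at 1 nM final.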
* marks the source's active call; other numbers are inactive results; ? = inconclusive; · = no result; [ ] = remark or other dose. Shown are actives, neighbours in structure and some others; about 16% of the full set was active somewhere. Unless noted, calls come from the whole dose curve; as a rule, active = well fitted curve in the direction sought with a large enough effect; inconclusive = small, poorly fitted or top-dose-only effect, or another doubt; inactive = no such curve, though single readings can be large; an effect the other way counts as inactive or inconclusive.

1: Cc1ccccc1CN1C(=O)C(O)(CC(=O)c2ccncc2)c2ccccc21 (stereo not drawn)
2: CCCCN1C(=O)C(O)(CC(=O)c2ccc(CC)cc2)c2cc(Br)ccc21 (stereo not drawn)
3: Cc1n[nH]c(C)c1C(=O)CC1(O)C(=O)N(Cc2ccccc2)c2ccc(Br)cc21 (stereo not drawn)
4: COCCn1nnnc1C(c1cccs1)N1CCN2CCCC2C1 (stereo not drawn)
5: O=C(CC1(O)C(=O)N(Cc2ccc3c(c2)OCO3)c2ccccc21)c1ccccc1 (stereo not drawn)
6: C=CCN1C(=O)C(O)(CC(=O)c2ccco2)c2cc(Br)ccc21 (stereo not drawn)
7: Oc1ccc2ccccc2c1C=NC1CCCCC1
8: O=C(Nc1nc2ccc(F)cc2s1)c1nc(S(=O)(=O)Cc2ccccc2)ncc1Cl
9: CCCc1nnc(NC(=O)c2nc(S(=O)(=O)Cc3cccc(C)c3)ncc2Cl)s1
10: Cc1cccc(CS(=O)(=O)c2ncc(Cl)c(C(=O)Nc3nc4ccc(F)cc4s3)n2)c1
assay / entry	1	2	3	4	5	6	7	8	9	10
TDP1 cell CPT	4.6µM*	?	?	-27%	3.7µM*	2.3µM*	?	2.3µM*	?	2.3µM*
uPA generation	-14%	·	7%	4%	2%	?	6%	·	?	·
DT40 TDP1 no CPT	3.3µM*	18µM*	?	-7%	5.8µM*	5.2µM*	-28%	2.3µM*	?	2.3µM*
miR-21 reporter	2%	?	12%	-30%	-11%	28%	5%	?	?	?
TDP1 block	-4%	·	5%	0%	-2%	1%	5%	-2%	5%	-2%

11: Cc1ccn2c(-c3csc(NCc4ccccc4)n3)c(C)nc2c1
12: Cc1nc2ccccn2c1-c1csc(NCc2ccco2)n1
13: CC(C)(C)c1ccc(-c2nnc3sc(-c4ccccn4)nn23)cc1
14: O=C(OCc1cc(=O)n2c(n1)sc1ccccc12)c1ccc(O)cc1
15: O=c1cc(CCl)nc2sc3ccccc3n12
16: O=C(CSc1nncs1)N1CCN(C(=O)c2ccco2)CC1
17: Cn1c(=O)[nH]c(=O)c2c1nc(SCC(=O)Nc1ccccc1)n2Cc1ccccc1
18: CC(O)CSc1nc2c(c(=O)[nH]c(=O)n2C)n1Cc1ccccc1 (stereo not drawn)
19: C=C(C)CSc1nc2c(c(=O)[nH]c(=O)n2C)n1Cc1ccccc1
20: Cn1c(=O)[nH]c(=O)c2c1nc(SCC(O)CCl)n2Cc1ccccc1 (stereo not drawn)
assay / entry	11	12	13	14	15	16	17	18	19	20
TDP1 cell CPT	?	13µM*	?	1%	?	10%	23µM*	-22%	?	12µM*
uPA generation	-12%	-6%	-4%	14%	1%	0%	11%	-2%	?	?
DT40 TDP1 no CPT	15µM*	21µM*	?	-3%	?	0%	18µM*	-1%	?	?
miR-21 reporter	?	2%	-33%	-58%	1%	·	-9%	-25%	-12%	-16%
TDP1 block	12%	7%	2%	-12%	50µM*	·	2%	1%	·	3%

21: Cc1c(C)c2ccc(OCC(=O)N3CC[C@@]4(O)CCCC[C@H]4C3)cc2oc1=O
22: COc1ccc(Cl)c2sc(N(CCN(C)C)C(=O)CCS(=O)(=O)c3ccc(C)cc3)nc12
23: CCN(CC)CCN(C(=O)CCS(=O)(=O)c1ccccc1)c1nc2cc(OC)c(OC)cc2s1
24: CCN(CC)CCN(C(=O)CCS(=O)(=O)c1ccccc1)c1nc2cc(C)cc(C)c2s1
25: CCN(CC)CCN(C(=O)CCS(=O)(=O)c1ccccc1)c1nc2c(C)cc(C)cc2s1
26: Cc1cc(C)c2sc(N(CCN(C)C)C(=O)CCS(=O)(=O)c3ccccc3)nc2c1
27: Cc1cccc(C(=O)Nc2ccn(C)n2)c1
28: COc1ccc(CCNC(=O)c2cccc3ccccc23)cc1OC
29: Cc1ccc(CCNC(=O)c2coc3nc4ccccc4nc23)cc1
30: CCC(Cc1ccccc1)NC(=O)c1cccc(Nc2nc3ccccc3nc2-n2nc(C)cc2C)c1 (stereo not drawn)
assay / entry	21	22	23	24	25	26	27	28	29	30
TDP1 cell CPT	-27%	?	?	21µM*	16µM*	23µM*	7%	7%	?	-27%
uPA generation	-1%	-1%	-6%	2%	?	1%	-3%	4%	-5%	·
DT40 TDP1 no CPT	-32%	?	?	?	7.3µM*	18µM*	-11%	8%	29µM*	-22%
miR-21 reporter	-6%	·	1%	4%	10%	0%	·	-4%	-11%	0%
TDP1 block	·	-14%[0.505 µM]	6%	5%	4%	7%	-2%	2%	8%	0%

Entries 28–30 of the list above:
28: COc1ccc(CCNC(=O)c2cccc3ccccc23)cc1OC
29: Cc1ccc(CCNC(=O)c2coc3nc4ccccc4nc23)cc1
30: CCC(Cc1ccccc1)NC(=O)c1cccc(Nc2nc3ccccc3nc2-n2nc(C)cc2C)c1 (stereo not drawn)
assay / entry	28	29	30
TDP1 cell CPT	7%	?	-27%
uPA generation	4%	-5%	·
DT40 TDP1 no CPT	8%	29µM*	-22%
miR-21 reporter	-4%	-11%	0%
TDP1 block	2%	8%	0%

Next section.
31: CCOc1ccc(CCNC(=O)c2cc(Nc3ccc(C)cc3C)nc3ccccc23)cc1OCC
32: Cc1ccc(Nc2cc(C(=O)NCCc3ccccc3)c3ccccc3n2)c(C)c1
33: CC1CCCN(CCCNC(=O)c2coc3nc4ccccc4nc23)C1 (stereo not drawn)
34: COc1ccc(CCNC(=O)c2cccc(Nc3nc4ccccc4nc3-n3nc(C)cc3C)c2)cc1OC
35: COc1ccc(CCNC(=O)c2cc(-c3ccc(C)c(C)c3)nc3ccccc23)cc1OC
36: CCOc1ccccc1N(C(=O)CNC(=O)c1ccco1)C(C(=O)NC1CCCC1)c1cccnc1 (stereo not drawn)
37: COc1ccc(-c2cc(C(=O)NCCc3ccc(OC)c(OC)c3)c3ccccc3n2)cc1
38: COc1ccc(CCNC(=O)c2cc(Nc3ccccc3)nc3ccccc23)cc1OC
39: CN(CC(=O)Nc1ccc(Cl)cc1)C(=O)c1cccc(S(=O)(=O)N2CCN(Cc3ccccc3)CC2)c1
40: O=C(Nc1ccc(S(=O)(=O)N2CCN(Cc3ccccc3)CC2)cc1)c1cnccn1
assay / entry	31	32	33	34	35	36	37	38	39	40
TDP1 cell CPT	8.2µM*	?	6%	5.2µM*	10µM*	3%	18µM*	9.2µM*	5.8µM*	9.2µM*
uPA generation	·	·	1%	·	·	1%	·	·	-4%	0%
DT40 TDP1 no CPT	8.2µM*	?	-7%	4.6µM*	-81%	-2%	12µM*	8.2µM*	5.2µM*	5.2µM*
miR-21 reporter	-4%	5%	-19%	-1%	8%	-5%	-8%	26%	·	3%
TDP1 block	5%	7%	5%	-2%	5%	4%	0%[12.3 µM]	-3%	6%	1%

41: O=C(Nc1ccc(S(=O)(=O)N2CCCC2)cc1)c1cnccn1
42: CN(C)C(=O)c1ccc(NC(=O)c2cccc(S(=O)(=O)N3CCN(Cc4ccccc4)CC3)c2)cc1
43: CN(C)c1ccc(N/C(=N\S(=O)(=O)c2cccs2)c2ccccc2)cc1
44: COc1ccc(CN(C(=O)/C=C/C(=O)c2ccc(OC)cc2O)C(C(=O)NC2CCCCC2)c2ccncc2)cc1 (stereo not drawn)
assay / entry	41	42	43	44
TDP1 cell CPT	-20%	15µM*	?	?
uPA generation	1%	-9%	1%	-12%
DT40 TDP1 no CPT	?	18µM*	6.5µM*	?
miR-21 reporter	-3%	·	-25%	-3%
TDP1 block	-1%	·	0%	2%
